## Yeast mating assay B: variants of the scFv Ab-14

Reference: Li et al. 2023, doi:10.1038/s41467-023-39022-2. File: FLAb, binding data.

Binding partner: SARS-CoV-2 spike HR2 peptide, sequence PDVDLGDISGINAS.

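These sequences belong to a second round, designed from the earlier measurements on random variants of the parent. Their group label is 14L_Ctrl (Ctrl: baseline library sampled from a position-specific scoring matrix, with some repeated check sequences). Affinity was read by AlphaSeq, a pooled yeast mating assay with surface-displayed partners. Mating (16 h, 30 °C) was followed by selection of diploids and sequencing of their barcodes. Read counts were normalised to the haploid input and turned into Kd by a linear fit to BCL2-family pairs of known affinity, for each replicate. The assay was run in six technical replicates.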

The variants keep the heavy chain, the linker and the frameworks of Ab-14 (scFv order VH, the linker GGGGSGGGGSGGGGS, VL).
VH: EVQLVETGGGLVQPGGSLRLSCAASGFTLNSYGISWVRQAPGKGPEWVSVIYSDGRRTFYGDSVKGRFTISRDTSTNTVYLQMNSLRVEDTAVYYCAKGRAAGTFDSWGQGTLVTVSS
VL: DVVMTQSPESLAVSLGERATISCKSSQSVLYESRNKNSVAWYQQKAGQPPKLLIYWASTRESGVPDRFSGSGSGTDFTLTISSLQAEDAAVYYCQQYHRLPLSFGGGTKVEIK

Each variant is given by its three light chain CDRs, as the data file delimits them; those of the parent are KSSQSVLYESRNKNSVA, WASTRES, QQYHRLPLS. Numbers give log10(Kd / nM), so 0 is 1 nM and 3 is 1 µM. Smaller is tighter. Replicates are averaged; those with no signal do not enter the mean. Where no diploid with the target was found in that replicate, the entry reads "ND": below detection, most likely a poor binder, though not proof of it. Where one sequence has several entries in the source, the replicates are listed entry by entry, parted by semicolons.

CDR-L1,CDR-L2,CDR-L3,"log10 Kd, replicates",mean log10 Kd (nM),empty controls
KCSQSVLYESNNSNAVA,WASTRES,QQVHRLPLS,ND ND ND ND ND ND,ND,0/18
KISQSVLYNSRNTNSVA,WASTRES,QQYHRLPLS,0.56 0.79 0.91 0.22 0.82 0.95,0.71,0/18
KSYQSVHAESFNKNSVA,WASTRES,QQYHRLPLS,ND ND ND ND ND ND,ND,0/18
VSSQSVLYESTNKNSVA,WGSTRES,QQYHRLPLS,2.00 1.36 1.30 1.32 1.43 1.92,1.56,1/18 (2.58)
KSSQSVSQENQNKGSVA,WASTRES,QQYHGHPLS,ND ND ND ND 2.91 ND,2.91,1/18 (1.99)
KSSQSVLGESSNKNSVA,KASTRES,QQYHRLPCS,ND ND ND ND ND ND,ND,0/18
MSSQSVLYESRNKNSTA,WANKRES,QQYHDLPLS,ND ND ND ND ND ND,ND,3/18 (2.98)
KISQSVLYESNNQNSVA,WASTRES,QQYHRLPLS,0.54 0.30 0.02 0.01 0.22 0.68,0.29,1/18 (1.63)
KSSQSVLYESRNLNSVA,WASTRES,QQYHRLPLS,1.35 1.57 1.54 1.11 1.13 1.30; 1.51 ND 2.29 4.07 2.09 ND; ND 1.33 0.17 0.98 0.14 1.22; 1.76 1.61 2.48 1.74 1.35 1.56; 0.92 0.71 0.51 0.62 0.08 0.54,1.32,4/90 (1.95)
KSSASHLYESRNANSVA,NASTRES,QQYHRGPLS,ND ND ND ND ND ND,ND,0/18
KLEQSVLYESRNKNSIA,WASTRES,QQYHRLPLS,0.76 0.73 0.50 0.52 0.96 0.60,0.68,1/18 (3.56)
KSMQSVLYESRNKNSVA,AASHRES,QQYHRLPLS,0.85 0.96 0.82 0.96 1.08 1.32,1.00,0/18
KSSQSKLAESGNKNSVA,WASTRES,QQYHRLPLS,ND 1.50 ND 1.80 2.83 1.52,1.91,0/18
KISFSVLYESRNKNNVA,WASTRES,QQYHRLPLS,2.26 1.81 1.61 1.44 1.49 1.15,1.63,0/18
ISSQPVLYESRNKNSVA,NASTRES,QQYHRLPLS,0.78 0.51 0.72 0.68 0.62 0.82,0.69,1/18 (2.59)
KSSFSVLYESRNKNSVA,WASTRES,QGYHRLPLS,ND ND ND ND ND ND,ND,0/18
KSSQSVLYASRNKNSVA,AASTRES,QQYHRLPLS,2.10 1.51 0.61 0.78 1.02 1.81,1.30,0/18
QSSGSVLYESRNKNSVA,DASTRES,QQYHRLPLS,-0.05 -0.22 -0.19 -0.42 -0.29 -0.11,-0.21,0/18
KSSQSVLRESRNKNSVA,EASTRES,QQYHHLPLS,1.93 2.00 2.36 1.00 1.91 2.57,1.96,2/18 (2.39)
KMSQSQLVESRNKNSVA,EASTRES,QQYHRLPLS,-0.42 -0.25 -0.29 -0.28 -0.40 0.08,-0.26,0/18
KLSMSVLYECRNKNSVA,TASTRES,QQYHRLPLS,ND 0.61 0.96 0.42 0.67 0.89,0.71,0/18
KSSQSVLNESRNKNSVA,GASTRED,QQYHRLPLS,0.64 0.40 0.64 0.45 0.30 0.37,0.47,1/18 (2.54)
KCEQSVLYESQNKNSVA,WASTRES,QQYHRLPNS,1.95 1.66 1.55 2.57 2.54 2.18,2.08,0/18
KSSQFVWFETTNKNSVA,DASTRES,QQYHRLPLS,-0.33 -0.21 -0.35 -0.62 -0.46 -0.33,-0.38,1/18 (2.18)
KISQSVLYESRNKNSVA,RASTRES,QQYHRLPLS,0.41 -0.18 0.45 0.63 -0.31 0.18,0.20,0/18
KSSQSVLYEFRNKNSVA,RASTRES,QQVHRLPLS,ND ND ND ND ND ND,ND,0/18
KSSQSVLYEDENKNSVA,WASTRES,QQYHRLPLS,1.85 1.37 1.65 1.43 1.56 1.56,1.57,0/18
KSSQSVLYFSRNKNSVA,WASTRES,QQYHRLPLS,ND ND ND ND ND ND,ND,1/18 (1.91)
KSSDSGLYESRNKNSVA,WASTRES,QQYTRLPLS,1.75 ND 1.45 1.31 0.97 1.21,1.34,0/18
KSSQSVLYESRLKNSVA,WASTRES,QQYHRLPLS,2.01 ND ND 2.54 ND 1.72,2.09,0/18
KSSLKVGYESRNFNSVA,WASARES,QQYHTLPLS,ND ND ND ND ND ND,ND,0/18
KFSQSVQYESRRLNSVA,WASTRES,QQYHRLPLS,1.64 1.12 1.60 1.75 1.67 1.39,1.53,0/18
KSSQPVLYESKNKNSVA,WASTRES,QQYHRLPLS,ND ND ND ND ND 2.13,2.13,0/18
KFSQSMLFSSRNKNSVA,WASTRES,QQYHRLPLS,1.04 0.90 0.87 0.69 0.39 1.50,0.90,0/18
KSSQSVLIESRNINSVA,WASTRES,QQYHRLPLS,ND 1.24 ND ND ND 1.77,1.51,1/18 (1.22)
KKSQQVLYESRNKNSVA,RASTRES,QQYHRLPLS,ND ND ND ND ND ND,ND,0/18
KSSQSMLYEEQNKQSVA,WASTRPS,QQYHRLPLS,ND ND ND ND ND ND,ND,0/18
KSSQSVLYESRNKNHVA,WASTREE,QQYHRLPLS,ND ND ND ND ND ND,ND,0/18
KSSQSVLYESRNINSVA,WASTRES,QQYHRLPLS,ND ND ND ND ND ND,ND,0/18
KPSQSVLYESRNKNSVA,YASTRES,QQYHRLPLS,-0.07 -0.34 -0.45 -0.40 -0.40 -0.31,-0.33,1/18 (2.27)
KSSQGWLYESRNKNSVA,WASTRES,QQYHRLPLS,1.38 2.28 1.42 ND ND 1.66,1.68,1/18 (2.01)
KSLQPKLYESRNKNSVA,QASTRES,AQYHRTPLS,ND ND ND ND ND ND,ND,0/18
KLSQSVLYEWRNKNSVA,WASTREG,QQYHRLSLS,ND 1.49 2.10 3.03 3.08 ND,2.42,0/18

Values of this round are not directly comparable with the first-round values of the same sequences. Of ten entries with the parent sequence, four were seen in most replicates (averages 0.34 to 2.37), three in one and three in none, so single entries are noisy. The authors averaged sequences with at least three values out of six and counted those with two or fewer as poor binders. Background: pairings of all light chain designs with three empty control strains gave a value in 4% of cases (median 2.64, 5th percentile 1.59). Values in that range, when seen in few replicates, are hard to tell from nonspecific mating. The control count says in how many pairings with the empty strains this scFv gave a signal, with their mean in brackets.